Antibody variant affinities, Ab-91 heavy chain, assay 2

The measurements come from Engelhart et al. 2022 (doi:10.1038/s41597-022-01779-4) through the FLAb antibody collection.

Antigen: PDVDLGDISGINAS, a 14-residue peptide of the SARS-CoV-2 spike HR2 region.

Each scFv is VL, a (GGGGS)3 linker, VH, as in the parent Ab-91, and differs from it in the CDRs of the heavy chain only.
VL: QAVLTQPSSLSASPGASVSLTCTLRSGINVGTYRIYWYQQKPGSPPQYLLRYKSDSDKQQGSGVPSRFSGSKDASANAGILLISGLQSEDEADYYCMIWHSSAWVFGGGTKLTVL
VH: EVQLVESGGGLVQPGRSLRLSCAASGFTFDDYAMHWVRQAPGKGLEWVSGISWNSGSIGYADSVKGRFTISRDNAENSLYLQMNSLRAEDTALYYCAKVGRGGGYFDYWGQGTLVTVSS

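Phage display of a naive human antibody library on the peptide gave the parent. Library AAYL51 holds single substitutions and randomly drawn double and triple substitutions in the CDRs. In AlphaSeq, yeast of one mating type display the scFv and yeast of the other type display the target. Pairs that bind mate more often; barcode pairs of the diploids are counted by sequencing. Scores were corrected for input abundance and mapped to Kd with protein pairs of known affinity run in the same pool. Mating was done three times.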

Variants are written as CDR1, CDR2 and CDR3 of the heavy chain (limits as in the source). Parent: GFTFDDYAMH, GISWNSGSIGYADSVK, VGRGGGYFDY.
Affinities are written as log10 Kd with Kd in nM; a lower number is a better binder.
A pair that was not seen in that replicate is written "nd"; this usually means weak binding, but a binder can also be missed.
Nonspecific signal, from three strains lacking the peptide, appeared in 21% of pairings of library AAYL51, centred on 4.54 (5% of these signals below 3.26); values are not corrected for it. The control count says in how many pairings with the empty strains this scFv gave a signal, with their mean in brackets.

CDR-H1 | CDR-H2 | CDR-H3 | log10 Kd, replicates | control signals
GFTFPDYAMH | GISWNSGSIIYADSVK | VGRGGGYFDG | 5.51 nd nd | 2 of 9 (3.45)
HFTFDDYAMH | QISWNSGSIIYADSVK | VGRGGGYFDY | nd nd 2.59 | 0 of 9
GMTFDDYAMH | GISWNSGSIGYANSVM | VGRGGGYFDY | nd nd 3.80 | 1 of 9 (4.12)
GFTFDDYASH | GISWNSGSAGYADSVK | VGRGGGRFDY | 4.46 nd nd | 0 of 9
GFNFDDYAMH | GISWNSGGIGYATSVK | VGRGGGYFDY | nd 5.58 nd | 1 of 9 (2.96)
EFTFDDYSMH | GKSWNSGSIGYADSVK | VGRGGGYFDY | 5.27 7.10 5.33 | 7 of 9 (4.90)
GFTFDLYAMH | GISWNSGSIGYADSVA | VGRGGGLFDY | nd nd nd | 0 of 9
GFTFDDYAMN | GISFNSGSIGYADSSK | VGRGGGYFDY | 4.38 5.34 nd | 3 of 9 (4.54)
DFTFDDYAMH | GISWNSGSIGYADSVK | AARGGGYFDY | nd 4.46 nd | 5 of 9 (4.06)
GFTFDDYAMH | GISWNSGSINYPDSVK | VGRGGGYFDY | nd nd nd | 0 of 9
GFTFDDYAMH | GISWFSGSNGYADSVW | VGRGGGYFDY | nd 5.28 nd | 1 of 9 (3.59)
GFDFDDYAMH | GISWNSGSIGYADSVK | NGRGVGYFDY | nd nd nd | 0 of 9
GFTFDDYAMH | GISWNSGSIGYADSVK | VTWGGGYFSY | nd 5.92 nd | 1 of 9 (3.37)
GFTFDDYAMH | GISWNSGSIGYADSVK | IQRGYGYFDY | 4.11 5.59 nd | 3 of 9 (4.01)
GTTFDDYAMH | GYSWNSGSIGYADSWK | VGRGGGYFDY | nd nd nd | 0 of 9
GFTFDDYAMH | EISWNSGSIGEADSEK | VGRGGGYFDY | 4.31 5.15 nd | 4 of 9 (4.30)
GFTGDDYAMH | GISWNSGSIGGADSVK | VGRDGGYFDY | nd nd nd | 0 of 9
GFTFDDYAMH | GISMNSGYIGYADSVQ | VGRGGGYFDY | nd nd nd | 0 of 9
GFTFDDYAMH | GIHWNSGSIGYADSVK | VGEGGSYFDY | nd nd nd | 4 of 9 (4.60)
GFTFDDYAMH | GISWNSGSIGYDDSVG | VGRGGWYFDY | 3.24 2.41 2.70 | 3 of 9 (3.55)
GYTFDDYAMH | GISWPSGSIGYADSVP | VGRGGGYFDY | nd nd nd | 3 of 9 (4.28)
GFTQDDYAMH | GISWNSGSIGYADSVI | VGPGGGYFDY | nd 3.77 nd | 1 of 9 (2.92)
GFTFDDYAMH | NISWNSGSIGYADSTL | VGRGGGYFDY | nd nd nd | 1 of 9 (3.20)
GFTRDDYAMH | GISLNSGSIGDADSVK | VGRGGGYFDY | nd 3.93 nd | 1 of 9 (3.46)
GFTFDDYAMH | GISWNSGSHGYADSVK | VGRGGGYFDY | nd nd 4.42 | 1 of 9 (5.13)
KFTFDDYAMH | GISWESGSIGYADSVK | KGRGGGYFDY | 4.31 4.87 nd | 0 of 9
GFTFDTYAMH | GISWNSGSIGYADSVK | FGRGGGYLDY | nd nd nd | 2 of 9 (3.60)
GFTFDDYAMH | GISWNSGEIGYADSVH | VGRGAGYFDY | nd 5.51 nd | 1 of 9 (4.70)
GFTFDDYAMH | GISWNSGSIGYADSVQ | VGRGYGEFDY | nd nd nd | 1 of 9 (4.34)
GFTFDDYAMA | GISWNSGSIGYADSVK | MGRGPGYFDY | nd nd nd | 2 of 9 (3.86)
GFTFDDYAMH | GIWWNSTSIGPADSVK | VGRGGGYFDY | 5.76 6.14 4.28 | 6 of 9 (5.19)
GHTFDDYAMH | GIDWNSGSIGYADSTK | VGRGGGYFDY | 3.41 nd nd | 1 of 9 (3.84)
GFTFDNYAHH | GISWNNGSIGYADSVK | VGRGGGYFDY | nd 4.66 4.98 | 3 of 9 (4.03)

4 of these entries, quoted again:

CDR-H1 | CDR-H2 | CDR-H3 | log10 Kd, replicates | control signals
DFTFDDYAMH | GISWNSGSIGYADSVK | AARGGGYFDY | nd 4.46 nd | 5 of 9 (4.06)
GFTFDNYAHH | GISWNNGSIGYADSVK | VGRGGGYFDY | nd 4.66 4.98 | 3 of 9 (4.03)
GFNFDDYAMH | GISWNSGGIGYATSVK | VGRGGGYFDY | nd 5.58 nd | 1 of 9 (2.96)
GFTGDDYAMH | GISWNSGSIGGADSVK | VGRDGGYFDY | nd nd nd | 0 of 9